Measured values taken from patent US9725441B2, “Histone demethylase inhibitors” (CELGENE QUANTICEL RESEARCH, INC., priority 2012, dated 2017).

Test system: KYSE-150 esophageal carcinoma cell line
Test: In vitro cell-based assay: cellular proliferation via BrdU incorporation ELISA
Set-up: species or system human
Conditions: KYSE-150 cells, 168 hr compound incubation

Substance: 3-{[(6-chloro-1,2,3,4-tetrahydronaphthalen-1-yl)methyl]amino}pyridine-4-carboxylic acid [Example 67]
- IC50: 1 to 10 µM
